The conditions of this series: electron microscopy.

As to ASTTTNYT [Peptide T], the fibril formation result is given as “formed fibrils”.

(Values after patent US10973906B2, “Therapeutic peptides and vaccines” (priority 2005, dated 2021).)
